Values of other authors, collected in US20260256742A1, “ANDROGEN RECEPTOR ANTAGONISTS FOR THE TREATMENT OF PATIENTS WITH BIOCHEMICAL RECURRENCE OF HORMONE SENSITIVE PROSTATE CANCER” (BAYER CONSUMER CARE AG, priority 2023, published 2026).

Test system: AR mutants
Settings: cited from earlier work

CC(O)c1cc(C(=O)N[C@@H](C)Cn2ccc(-c3ccc(C#N)c(Cl)c3)n2)[nH]n1 (stereo partly shown) [Darolutamide]
activity against known AR mutants that confer resistance to other second-generation antiandrogens: activity against known AR mutants
